Values quoted from earlier work as cited in patent US20100239707A1 (priority 2007, published 2010).

Details: in vivo

lipopolysaccharide [LPS]
LPS needed for a strongly lethal induction: 10 µg/kg
